Data taken from publication PMC12596758 (Clinical pharmacology and therapeutics, 2025).

Experiments:
[1] = mice; cited from earlier work
[2] = cimetidine 400 mg vs baseline, healthy adults

For `CN(C)C(=N)N=C(N)N` [Metformin], the “liver-to-plasma ratio of metformin, effect of cimetidine” value [1] is listed as “significantly increase” and the “CLr,b, effect of cimetidine exposure vs baseline (in words)” value [2] is listed as “unaffected”.
